Columns and labels:
[1] = test system: "Repair and Rebuild" associated genes; assay: Eigengene analysis of "Repair and Rebuild" co-expression module; conditions: 301 genes, FIG. 9
[2] = test system: "Clear and Detox" module genes; assay: Eigengene analysis of "Clear and Detox" co-expression module; conditions: FIG. 8

Row | Substance | effect on "Repair and Rebuild" eigengene [1] | effect on "Clear and Detox" eigengene [2]
1 | palmitoyl-lysine-threonine [Pal-KT] | up-regulated the eigengene, but to a lesser extent than Pal-KTTS and Olivem® 460 | –
2 | palmitoyl-lysine-threonine-threonine-lysine-serine [Pal-KTTKS] | – | up-regulate the eigengene, but to a lesser extent than pal-KT
